# Yeast mating assay B: variants of the scFv Ab-14

All variants were tested on one target, the spike HR2 peptide PDVDLGDISGINAS (SARS-CoV-2).

Ab-14 is the parent antibody, in scFv form: VH, then the linker GGGGSGGGGSGGGGS, then VL. The light chain is unchanged in all variants.
VH: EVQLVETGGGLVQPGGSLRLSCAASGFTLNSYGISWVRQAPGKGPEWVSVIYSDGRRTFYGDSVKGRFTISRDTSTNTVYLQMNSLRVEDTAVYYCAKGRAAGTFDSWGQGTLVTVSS
VL: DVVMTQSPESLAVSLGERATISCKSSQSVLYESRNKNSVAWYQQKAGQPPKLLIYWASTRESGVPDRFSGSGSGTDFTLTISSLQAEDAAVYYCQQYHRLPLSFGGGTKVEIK

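The starting antibody came from a phage panning campaign against this peptide. Designed CDR sequences, proposed from the first random library and measured here. Several design methods are mixed in this list. In AlphaSeq, yeast of one mating type display the scFv and yeast of the other type display the target. Binding brings cells together so that they mate, and sequencing counts the barcode pairs among the diploids. A regression on co-assayed BCL2-family reference pairs converts the normalised counts of each replicate to an apparent Kd. The assay was run in six technical replicates.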

Each variant is given by its three heavy chain CDRs, as the data file delimits them; those of the parent are GFTLNSYGIS, VIYSDGRRTFYGDSVK, GRAAGTFDS.
The read-out is the apparent dissociation constant on a log10 scale (nM): the lower, the stronger.
A mean of the replicates is given; it leaves out those without a signal.
Where no diploid with the target was found in any replicate, the entry reads "not detected": below detection, most likely a poor binder, though not proof of it.
A sequence that the file lists under several names has all its replicates pooled.

| # | log10 Kd (nM), mean | detected | signal with controls | CDR-H1 | CDR-H2 | CDR-H3 |
|---|---|---|---|---|---|---|
| 1 | 0.24 | 6 of 6 | 0 of 18 | GFTLESYGIS | VIYADGRRTFYGDDVK | GRAAGTFDS |
| 2 | 0.99 | 1 of 6 | 0 of 18 | MFTLNSYGIS | VIYSDGRRTFYDDSVK | GQLAGTFDS |
| 3 | not detected | 0 of 6 | 0 of 18 | GFDLEEFGIS | VIYADGTRTMYLPTVK | GVNGGTFQM |
| 4 | 2.04 | 4 of 6 | 0 of 18 | GTTLNEYGIS | VIYSDGRRTFYGDSVK | GRAAGTFDS |
| 5 | not detected | 0 of 6 | 0 of 18 | GFTLNSYGIS | VIYSDGRRTFYGDSVK | GRTAATFDS |
| 6 | 1.38 | 4 of 6 | 0 of 18 | KFTLNSYGIS | VIYSDGKRTFYSDSVK | GRQAGTFDS |
| 7 | -0.25 | 6 of 6 | 0 of 18 | GFDLDEYGIS | VIYADGRRTFYQDSVK | GNVAGTFDM |
| 8 | 2.25 | 4 of 6 | 1 of 18 | GFQLNDYGIS | VIYSDGRRTFYGDSVK | GRAAGTFES |
| 9 | -0.27 | 6 of 6 | 0 of 18 | GFSLNEYGIS | VIYSDGRRTFYGDSVK | GQTAGTFDA |
| 10 | not detected | 0 of 6 | 2 of 18 | GDSLDEYGIS | VIYADGQRSFYADSVK | GEHDGLMFQ |
| 11 | -0.18 | 6 of 6 | 0 of 18 | GFDLNEYGIS | VIYADGKRTAYADSVK | GENAGTFDQ |
| 12 | 1.10 | 6 of 6 | 0 of 18 | GFHLNDYGIS | VIYSDGRRTYYGDSVK | GRAAGTFDS |
| 13 | 0.29 | 6 of 6 | 0 of 18 | GFTLNSYGIS | VIYADGRRTSYGDSVK | GRAAGTNKS |
| 14 | not detected | 0 of 6 | 0 of 18 | GYDLDDYGIS | VIYADGKRTSYAEDVK | GNIGGSFMN |
| 15 | not detected | 0 of 6 | 0 of 18 | GFTLNSYGIS | VIYADGRRTSYGDSVK | DRAAGTFDS |
| 16 | 0.25 | 6 of 6 | 0 of 18 | GFTLNEYGIS | VIYSDGRRTFYTDSVK | GREAGTFDL |
| 17 | not detected | 0 of 6 | 0 of 18 | GFTLNEYGIS | VIYSDGRRIFYGDSVK | GRYAVTFDD |
| 18 | 0.09 | 6 of 6 | 0 of 18 | GFDLNSYGIS | VIYSDGRRTFYGDSVK | GFTAGTFDS |
| 19 | not detected | 0 of 6 | 0 of 18 | GFDIEEYGIS | VIYADGVRTVYADDVK | GIAKGYSLT |
| 20 | 1.00 | 5 of 6 | 0 of 18 | GLNLESYGIS | VIYSDGRRTFYADSVK | GRAAGTFDS |
| 21 | -0.39 | 6 of 6 | 0 of 18 | GFDLDEYGIS | VIYADGRRTAYSDSVK | GNVAGTFDM |
| 22 | not detected | 0 of 6 | 1 of 18 | GFDLMEYGIS | VIYADGVRRAYSQSVK | GEGEDLYLD |
| 23 | -0.51 | 6 of 6 | 0 of 18 | GFDLNEYGIS | VIYADGMRTYYADSVK | GTNAGTFDV |
| 24 | not detected | 0 of 6 | 0 of 18 | GFDLNEYGIS | VIYADGTRKSYADNVK | GYQHSVVSI |
| 25 | 1.87 | 1 of 6 | 0 of 18 | GFVLNSYGIS | VIYSDGRRTFYIDSVK | GEAAGTFDS |
| 26 | 1.26 | 6 of 6 | 1 of 18 | AFNIEDYGIS | VIYADGVRAMYVESVK | GGIAGTFDI |
| 27 | not detected | 0 of 6 | 0 of 18 | GFTLNKYGIS | VIYSDGRRTFYGDSVK | GWAVGTFDS |
| 28 | -0.34 | 6 of 6 | 0 of 18 | GFDLNEYGIS | VIYADGQRTFYADSVK | GQNAGTFDL |
| 29 | 1.04 | 6 of 6 | 0 of 18 | GFELNNYGIS | VIYSDGRRTFYIDSVK | GQAAGTFDS |
| 30 | not detected | 0 of 6 | 0 of 18 | GFTLNSYGIS | VIYSDGRRTFYSDSVK | GRAADTADS |
| 31 | not detected | 0 of 6 | 1 of 18 | GVNLDEYGIS | VIYADGKRSHYTDKVK | GTFGDFMMV |
| 32 | 0.09 | 6 of 6 | 1 of 18 | GFDLNEYGIS | VIYADGRRTFYSDSFK | GEIAGTFDQ |
| 33 | not detected | 0 of 6 | 1 of 18 | GFDLNEYGIS | VIYADGMRTFYADSVK | GKNAGTILV |
| 34 | not detected | 0 of 6 | 0 of 18 | GFDLDEYGIS | VIYADGKRRAYESKVK | GQSGSSVVN |
| 35 | -0.49 | 6 of 6 | 0 of 18 | GFDLNSYGIS | VIYSDGRRTAYGDRVK | GRTAGTFDS |
| 36 | 1.28 | 6 of 6 | 1 of 18 | GFTLDSYGIS | VIYSDGRRTFYGDKVK | GRAAGTFDV |
| 37 | not detected | 0 of 6 | 0 of 18 | GFTLNSYGIS | VIYSDGRRTFYGDSVK | GKNAGTFDT |
| 38 | not detected | 0 of 6 | 0 of 18 | GFTLNSYGIS | VIYSDGRRTMYGDSVK | GRAAGPFDS |
| 39 | -0.14 | 6 of 6 | 0 of 18 | GFSLNSYGIS | VIYSDGRRTFYTDSVK | GTAAGTFDS |
| 40 | 0.33 | 6 of 6 | 0 of 18 | GFTLNEYGIS | VIYSDGRRTFYDDSVK | GRLAGTFDS |
| 41 | 1.32 | 5 of 6 | 0 of 18 | GFNLNSYGIS | VIYSDGRRTFYGDNVK | GRIAGTFDS |
| 42 | not detected | 0 of 6 | 0 of 18 | GFTLNSFGIS | VIYSDGRRTFYGDSVK | GRLAGTKDS |
| 43 | 1.97 | 1 of 6 | 0 of 18 | GFTLDSYGIS | VIYSDGRRTFYSDSVK | GEAAGTFDS |
| 44 | not detected | 0 of 6 | 1 of 18 | GFSFDEYGIS | VIYADGKRTFYANTVK | GNKDMAFDI |
| 45 | -0.22 | 6 of 6 | 0 of 18 | GFDLNEYGIS | VIYADGSRTAYADDVK | GETAGTFDV |
| 46 | 2.47 | 2 of 6 | 0 of 18 | GFTLNSYGIS | VIYSDGRRTYYGDSVK | GRAAGTDDS |
| 47 | 1.53 | 1 of 6 | 0 of 18 | GFEVDEYGIS | VIYADGKRSMYANKVK | GHIAGMMFV |
| 48 | -0.54 | 6 of 6 | 0 of 18 | GFDLNEYGIS | VIYADGMRTAYIDSVK | GQVAGTFDV |
| 49 | 1.10 | 6 of 6 | 2 of 18 | GFSLNNYGIS | VIYADGRRTFYGDSVK | GRAAGTNDS |
| 50 | 0.93 | 1 of 6 | 0 of 18 | GFDLNSYGIS | VIYSDGRRTFYQDKVK | GKAAGTFDS |
| 51 | not detected | 0 of 6 | 0 of 18 | GNDIEEYGIS | VIYADGQRVNAAKNFK | GKQAGTFNL |
| 52 | -0.75 | 6 of 6 | 0 of 18 | GFDLNEYGIS | VIYADGSRTFYADSVK | GENAGTFDI |
| 53 | not detected | 0 of 6 | 0 of 18 | GFTLNSYGIS | VIYSDGIRTFYGDSVK | GREADTFDS |
| 54 | 0.35 | 6 of 6 | 0 of 18 | GFDLDEYGIS | VIYADGRRTFYADSVK | GENAGTFTS |
| 55 | -0.16 | 6 of 6 | 0 of 18 | GFNLDEYGIS | VIYADGMRTFYQDSVK | GEVAGTFDV |
| 56 | 1.94 | 6 of 6 | 0 of 18 | GFTLNSYGIS | VIYSDGRRTFYGDSVK | GELAGTFDM |
| 57 | not detected | 0 of 6 | 0 of 18 | GFTLNEYGIS | VIYSDGRRTFYGDSVK | GRAAGTFSF |
| 58 | not detected | 0 of 12 | 0 of 36 | GFTLNEYGIS | VIYSDGRRTFYGDSVK | GRAAGTFTS |
| 59 | not detected | 0 of 6 | 0 of 18 | GNDLEEYGIS | VIYADGIRTNYSQNVK | GTLGDTFTQ |
| 60 | -0.42 | 6 of 6 | 0 of 18 | GFDLNEYGIS | VIYADGMRTAYADDVK | GHVAGTFDV |
| 61 | 0.28 | 6 of 6 | 0 of 18 | GFELNSYGIS | VIYSDGRRTMYGDSVK | GRTAGTFDS |
| 62 | not detected | 0 of 6 | 0 of 18 | GFELSEYGIS | VIYADGVRVEYTQSVK | GQLGGSFLV |
| 63 | -0.74 | 6 of 6 | 1 of 18 | GFDLNEYGIS | VIYADGRRTAYADSVK | GNVAGTFDL |
| 64 | -0.15 | 6 of 6 | 0 of 18 | GFGLNEYGIS | VIYSDGRRTFYDDSVK | GRTAGTFDS |
| 65 | not detected | 0 of 6 | 0 of 18 | GFDLQEYGIS | VIYADGLRSMVTNSVK | GNSGVMVLV |
| 66 | 0.97 | 6 of 6 | 0 of 18 | KFSLNSYGIS | VIYADGRRTFYGDSVK | GEAAGTFDS |
| 67 | 0.09 | 6 of 6 | 0 of 18 | GFSLNSYGIS | VIYSDGRRTFYSDSVK | GMTAGTFDS |
| 68 | -0.48 | 6 of 6 | 0 of 18 | GFDLDEYGIS | VIYADGKRSAYADSVK | GNVAGTFDV |
| 69 | -0.08 | 6 of 6 | 1 of 18 | GFNLNSYGIS | VIYSDGRRTFYKDSVK | GQVAGTFDS |
| 70 | not detected | 0 of 6 | 0 of 18 | EFDLNNYGIS | VIYADGLRTAYETSVK | GDNAGTFVS |
| 71 | 0.21 | 6 of 6 | 2 of 18 | GFSLNSYGIS | VIYSDGRRTFYADSVK | GEAAGTFDT |
| 72 | 0.15 | 6 of 6 | 1 of 18 | GFTLDSYGIS | VIYADGRRTFYGDSVK | GRAAGTFDR |
| 73 | 0.53 | 6 of 6 | 0 of 18 | GFDLNSYGIS | VIYSDGRRTFYADKVK | GKAAGTFDS |
| 74 | -0.02 | 6 of 6 | 0 of 18 | GFDLDEYGIS | VIYADGMRTAYADDVK | GNTAGTFDI |

The closing 11 entries, repeated:

| CDR-H1 | CDR-H2 | CDR-H3 | log10 Kd (nM), mean | detected | signal with controls |
|---|---|---|---|---|---|
| GFGLNEYGIS | VIYSDGRRTFYDDSVK | GRTAGTFDS | -0.15 | 6 of 6 | 0 of 18 |
| GFDLQEYGIS | VIYADGLRSMVTNSVK | GNSGVMVLV | not detected | 0 of 6 | 0 of 18 |
| KFSLNSYGIS | VIYADGRRTFYGDSVK | GEAAGTFDS | 0.97 | 6 of 6 | 0 of 18 |
| GFSLNSYGIS | VIYSDGRRTFYSDSVK | GMTAGTFDS | 0.09 | 6 of 6 | 0 of 18 |
| GFDLDEYGIS | VIYADGKRSAYADSVK | GNVAGTFDV | -0.48 | 6 of 6 | 0 of 18 |
| GFNLNSYGIS | VIYSDGRRTFYKDSVK | GQVAGTFDS | -0.08 | 6 of 6 | 1 of 18 |
| EFDLNNYGIS | VIYADGLRTAYETSVK | GDNAGTFVS | not detected | 0 of 6 | 0 of 18 |
| GFSLNSYGIS | VIYSDGRRTFYADSVK | GEAAGTFDT | 0.21 | 6 of 6 | 2 of 18 |
| GFTLDSYGIS | VIYADGRRTFYGDSVK | GRAAGTFDR | 0.15 | 6 of 6 | 1 of 18 |
| GFDLNSYGIS | VIYSDGRRTFYADKVK | GKAAGTFDS | 0.53 | 6 of 6 | 0 of 18 |
| GFDLDEYGIS | VIYADGMRTAYADDVK | GNTAGTFDI | -0.02 | 6 of 6 | 0 of 18 |

The authors averaged sequences with at least three values out of six and counted those with two or fewer as poor binders.
Of ten entries with the parent sequence, four were seen in most replicates (averages 0.34 to 2.37), three in one and three in none, so single entries are noisy.
Background: pairings of all heavy chain designs with three empty control strains gave a value in 1% of cases (median 2.08, 5th percentile 0.84). Values in that range, when seen in few replicates, are hard to tell from nonspecific mating. Also given: how often the same scFv was detected with the empty control strains.
A sequence measured in both rounds can read differently, since the two assays cover different ranges.

Source: Li et al. 2023 (doi:10.1038/s41467-023-39022-2), MIT Lincoln Laboratory and A-Alpha Bio; data file from the FLAb repository.